{
  "source": "patent US20140335050A1",
  "about": "“METHODS, COMPOSITIONS, AND KITS FOR THE TREATMENT OF CANCER” (The General Hospital Corporation, priority 2011, published 2014)",
  "key": {"[1]": {"system": "U-118 MG glioma cell line", "test": "Antibody staining and flow cytometry (intracellular gp100; surface MHC Class I/II)", "assay_type": "cell-based, human", "details": "3 days, IFN-beta 5000 Units/ml, 17-AEP 1.0, PU-H71 0.3, CCT018159 10.0 μg/ml", "description": "Cells were fixed with 1% formaldehyde, permeabilized with 0.1% saponin, stained with monoclonal antibodies to melanocyte antigens. Antibodies were obtained with specificity for: MART-1 from Vector Labs (Burlingame, Calif.); gp100 HMB45 from DakoCytomation (Carpinteria, Calif.) and then visualized with goat anti-mouse FITC-conjugated secondary antibody from Invitrogen (Fredrick, Md.). The level of EGFP was determined by flow cytometry of unfixed cells that were washed and resuspended in 1×PBS.\nCells were plated at a density of 1×10^5 in 1 ml of medium in a 24-well plate and cultured for varying times as indicated in results. Typically, 3 days of culture in the presence of Hsp90 inhibitors was optimal for the functional studies performed. After incubation, cells were collected by trypsinization and then evaluated by flow cytometry.\nIntracellular staining and flow cytometric analyses of cytoplasmic Melan-A/MART-1, and gp100 expression were performed as described previously. […] The level of EGFP was determined by flow cytometry of unfixed cells washed and resuspended in 1×PBS. […]\n(§1) For surface staining of HLA Class I and II antigens, cells were harvested using CellStripper™ from Mediatech (Manassas, Va.). […] Stained cells were washed twice with cold PBS and then stained with a goat anti-mouse FITC secondary antibody to allow for quantitative analysis by flow cytometry. […]"}, "[2]": {"system": "HeLa cervical carcinoma cells", "test": "Surface antibody staining and flow cytometry (MHC Class I/II)", "assay_type": "cell-based, human", "details": "single agent for 3 days, no IFN-β pre-treatment, IFN-β 5000 Units/ml, PU-H71 0.3", "description": "Intracellular staining and flow cytometric analyses of cytoplasmic Melan-A/MART-1, and gp100 expression were performed as described previously. Cells were fixed with 1% formaldehyde, permeabilized with 0.1% saponin, stained with monoclonal antibodies to melanocyte antigens. Antibodies were obtained with specificity for: Melan-A/MART-1 from Vector Labs (Burlingame, Calif.); gp100/HMB45 from DakoCytomation (Carpinteria, Calif.) and then visualized with goat anti-mouse FITC-conjugated secondary antibody from Invitrogen (Frederick, Md.). The level of EGFP was determined by flow cytometry of unfixed cells washed and resuspended in 1×PBS. Surface staining of MHC Class I was carried out using the antibody W6/32 on cells harvested with Cell Stripper from MediaTech Inc. (Manassas, Va.) and carried out on ice.\nCell were seeded at 1×10^6 cells in a T25 flask with 10 ml of media for the 4 day IFN-beta pre-treatments. Cells were then harvested and plated in 24 well plate at 1×10^5 cells per well in 1 ml of media for 3 day treatments.\nas §1, with “Va.). All staining steps were performed on ice.” for “Va.).”"}},
  "data": [
    {"smiles": "CC(C)NCCCn1c(Sc2cc3c(cc2I)OCO3)nc2c(N)ncnc21", "note": "[PU-H71]", "values": [
      {"measurement": "Class I, geometric mean of surface staining (W6/32)", "setting": "[1]", "value": 132},
      {"measurement": "Class I MHC, geometric mean of surface staining (W6/32)", "setting": "[2]", "value": 165}
    ]}
  ]
}
